Only a part is listed here, and it is no random draw. Activity calls are given as the source filed them. No stated cut-off is given here; in the data, active means inhibition above about 38%; inactive means the rest.

The chains behind the UniProt entries cited, without tags or fusion partners.
UniProt P9WHR9, whole entry: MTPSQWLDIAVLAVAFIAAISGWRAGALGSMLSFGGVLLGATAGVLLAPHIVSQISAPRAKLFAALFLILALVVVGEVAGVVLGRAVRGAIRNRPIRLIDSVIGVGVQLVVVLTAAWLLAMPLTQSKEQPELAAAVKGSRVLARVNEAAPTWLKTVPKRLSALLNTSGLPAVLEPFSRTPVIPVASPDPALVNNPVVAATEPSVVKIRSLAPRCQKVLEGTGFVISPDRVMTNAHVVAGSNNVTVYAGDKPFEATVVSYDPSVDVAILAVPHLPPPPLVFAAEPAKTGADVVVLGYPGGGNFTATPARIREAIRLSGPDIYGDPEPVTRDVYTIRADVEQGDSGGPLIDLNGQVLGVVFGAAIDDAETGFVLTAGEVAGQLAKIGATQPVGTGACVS

This passage reports inhibition results from PubChem BioAssay AID2606 (The Scripps Research Institute Molecular Screening Center, 2010).

The target in the experiment is Serine protease Rv3671c (Mycobacterium tuberculosis (strain ATCC 25618 / H37Rv)) (UniProt P9WHR9). The experiment in a line: Rv3671c serine protease inhibitors, primary screen, biochemical, fluorescence polarization, M. tuberculosis H37Rv (AID 2606).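 Further: extracellular domain of Rv3671c used as enzyme; 0% = enzyme with DMSO and 100% = no enzyme.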 The following applies: at 5.96 µM; hits give high values. A general note: Fluorescence polarisation rises when a labelled molecule tumbles more slowly, as on binding a larger partner.
With `CCC(=O)N(c1ccccc1)C1(COC)CCN(CCc2cccs2)CC1`, the inhibition is inactive: -11.2%.
`CCC(=O)N(c1ccccc1)C1(COC)CCN(CCn2nnn(CC)c2=O)CC1`: the inhibition was inactive: 2.5%.

For orientation: inhibition means the relative decrease from the control value, in per cent.
